The values that follow come from PubChem BioAssay (Tox21).

Where “and” joins values, the source holds several entries; their conditions need not be identical. Equal entries are not always repeated. The list shows a part of the results, in another mix than the full data. Inconclusive results are not listed. Calls of active or inactive are those of the source. The call rests on the fitted dose curve; in most records, active means well fitted curve in the direction sought with a large enough effect in the repeat runs; inconclusive means weak or mixed curves; inactive means no such curve, though single readings can be large; an effect the other way counts as inactive or inconclusive.

A short description of assay [1]: qHTS RealTime-Glo MT Cell Viability Assay in HepG2 cells - 40 hour (AID 1224870). Further: nearly all actives have a fitted effect of over 50% in size. To be noted: RealTime-Glo luminescence; at 76.8 µM (top of the series) unless noted. A digest of the protocol:
(§1)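 HepG2 cells mixed with RealTime-Glo MT reagents (NanoLuc plus cell-permeant prosubstrate) were seeded at 600 cells/well, incubated 5 h at 37 C/5% CO2, then pinned with compounds in DMSO; nonlytic luminescence tracked viability during 40 h treatment.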

A short description of assay [2]: A CellTox Green Cytotoxicity Assay to monitor cytotoxicity in HEK293 cells - 40 hour (AID 1224871). Further: nearly all actives have a fitted effect of over 45% in size. To be noted: CellTox Green fluorescence; at 76.8 µM (top of the series) unless noted. A digest of the protocol: (§2)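 Dead-cell fluorescence measured kinetically: asymmetric cyanine dye, HEK293, 600 cells/well, 5 h settle, 23 nL cpd/DMSO, 37 C, reads 0–40 h every 8 h.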

Assay [3] is described as follows: qHTS RealTime-Glo MT Cell Viability Assay in HEK293 cells - 16 hour (AID 1224872). Further: top concentration of the series differs between compounds; nearly all actives have a fitted effect of over 50% in size. The conditions noted are these: RealTime-Glo luminescence; at 76.8 µM (top of the series) unless noted. A digest of the protocol: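 HEK293 cells seeded with NanoLuc/prosubstrate reagent, rested 5 h at 37 C, then dosed and kept at 37 C up to 40 h. Nonlytic real-time luminescence from viable cells read at 0, 8, 16, 24, 32 and 40 h.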
(In general: In qHTS, concentration-response curves come from the screen itself.)

Assay [4] can be described thus: qHTS RealTime-Glo MT Cell Viability Assay in HepG2 cells - 8 hour (AID 1224873). Further: nearly all actives have a fitted effect of over 55% in size. The conditions noted are these: RealTime-Glo luminescence; at 76.8 µM (top of the series) unless noted. An outline of the steps:
as §1

Assay [5] can be described thus: qHTS RealTime-Glo MT Cell Viability Assay in HEK293 cells - 40 hour (AID 1224874). Further: nearly all actives have a fitted effect of over 50% in size. Further: potency means the concentration at half of the fitted maximal effect. To be noted: RealTime-Glo luminescence; max response: active compounds read low. A digest of the protocol:
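600 HEK293 cells per well, dispensed already mixed with RealTime-Glo MT reagents. Compound dosing came 5 h later. The same wells were read for luminescence at 0, 8, 16, 24, 32 and 40 h of exposure at 37 C.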

Assay [6] is described as follows: A CellTox Green Cytotoxicity Assay to monitor cytotoxicity in HEK293 cells - 24 hour (AID 1224875). Further: nearly all actives have a fitted effect of over 45% in size. To be noted: CellTox Green fluorescence, active compounds read high; at 76.8 µM (top of the series) unless noted. An outline of the steps: as §2
Assay [7] is described as follows: A CellTox Green Cytotoxicity Assay to monitor cytotoxicity in HepG2 cells - 16 hour (AID 1224876). Further: nearly all actives have a fitted effect of over 45% in size. The conditions noted are these: CellTox Green fluorescence; at 76.8 µM (top of the series). The text has this: (§3) National Center for Advancing Translational Sciences [NCATS]
(§4) NIH Chemical Genomics Center [NCGC]
(§5) U.S. Environmental Protection Agency [EPA]
(§6) National Institutes of Environmental Health Sciences [NIEHS]
(§7) National Toxicology Program [NTP]
(§8) Cell-based models are critical for drug discovery. Determining the natural cytotoxic effects resulting from test compounds is an essential research activity. A CellTox Green Cytotoxicity Assay to monitor cytotoxicity in real time of continues cell culture during 40 hours of the compound treatment was used to screen Tox21 10K library compounds in HepG2 cells. CellTox Green Cytotoxicity Assay is a nonlytic, homogeneous, biofluorescent method to measure cytotoxicity in cell culture after experimental manipulation. The assay system uses a proprietary asymmetric cyanine dye that is excluded from viable cells but preferentially stains the dead cell's DNA. […] Viable cells produce no appreciable increases in fluorescence. Therefore, the fluorescence signal produced by the binding interaction with dead cell DNA is proportional to cytotoxicity.
(§9) The mixture of HepG2 cell suspension and reagents were dispensed at 600cells/6 ul/well in 1536-well tissue culture treated black solid bottom plates using a Multidrop dispenser. After the assay plates were incubated at a 37 C/5% CO2 incubator for 5 hours, 23 nL of compounds dissolved in DMSO, positive and negative controls was transferred to the assay plate by a pintool work station. The plates were incubated at 37 C for 40 hours. The fluorescence intensity were measured at 0h, 8h, 16h, 24h, 32h and 40h time points using ViewLux plate reader during compound treatment.

The nature of assay [8]: qHTS RealTime-Glo MT Cell Viability Assay in HepG2 cells - 32 hour (AID 1224877). Further: nearly all actives have a fitted effect of over 55% in size. The conditions noted are these: RealTime-Glo luminescence; at 76.8 µM (top of the series) unless noted.
Source text: U.S. Tox21 Program National Center for Advancing Translational Sciences [NCATS] NIH Chemical Genomics Center [NCGC] U.S. Environmental Protection Agency [EPA] National Institutes of Environmental Health Sciences [NIEHS] National Toxicology Program [NTP] U.S. Food and Drug Administration [FDA] Tox21 Assay Overview: Measure of cell viability is critical in the cell-base assay. Analysis of cell viability is necessary for the characterization of cell responses to cytotoxic drugs and environmental stress. A RealTime-Glo MT Cell Viability Assay to monitor cell viability in real time of continues cell culture during 40 hours of compound treatment was used to screen Tox21 10K library compounds in HepG2 cells. The RealTime-Glo MT Cell Viability Assay is a nonlytic, homogeneous, bioluminescent method to measure cell viability in real time using a simple, plate-based method. The assay involves adding NanoLuc luciferase and a cell-permeant prosubstrate to cells in culture. Viable cells reduce the proprietary prosubstrate to generate a substrate for NanoLuc luciferase. This substrate diffuses from cells into the surrounding culture medium, where it is rapidly used by the NanoLuc Enzyme to produce a luminescent signal. The signal correlates with the number of viable cells, making the assay well suited for cytotoxicity studies.
as §9, with “Tox21 Assay Protocol Summary: The mixture” for “The mixture”, “hours. The luminescence intensity were” for “hours. The fluorescence intensity were”

The nature of assay [9]: A CellTox Green Cytotoxicity Assay to monitor cytotoxicity in HepG2 cells - 24 hour (AID 1224878). Further: nearly all actives have a fitted effect of over 45% in size. The conditions noted are these: CellTox Green fluorescence; at 76.8 µM (top of the series).
Source text: as §3, §4, §5, §6, §7, §8, §9

Assay [10] can be described thus: A CellTox Green Cytotoxicity Assay to monitor cytotoxicity in HepG2 cells - 40 hour (AID 1224879). Further: nearly all actives have a fitted effect of over 40% in size. The conditions noted are these: CellTox Green fluorescence; at 76.8 µM (top of the series) unless noted. A digest of the protocol:
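First, HepG2 cells (600/well) mixed with reagent were plated; second, after 5 h at 37 C they received compounds via pintool; third, fluorescence was measured at 0 h through 40 h at 8 h intervals.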
On the % scale 0 is the no-effect control and ±100 the full control effect.

`ClCCOP(OCCCl)OCCCl`: the activity change, negative = cytotoxic in assay [1] was inactive: -1.57% and inactive: -6.43%; in assay [8] it was inactive: 0.131% and inactive: -1.58%. Moreover, the cytotoxicity increase was inactive: -5.49% and inactive: 5% in assay [2]; inactive: -11.1% and inactive: -17.6% in assay [7]; inactive: -12.1% and inactive: -22.3% in assay [10]. Further, the activity change, negative = cytotoxicity in assay [3] was inactive: 6.09% and inactive: 0.649%. Also, the viability change, negative = cytotoxic in [4] was inactive: 2.74% and inactive: 4.61%. Also, the max response in assay [5] was inactive: 8.19% and inactive: 4.3%. In addition, the activity change in assay [6] is inactive: -9.68% and inactive: 2.97%. For the same compound, in assay [9], the cytotoxicity is inactive: -10.1% and inactive: -19.6%.

With `O=[N+]([O-])c1ccccc1[N+](=O)[O-]`, the activity change, negative = cytotoxic in assay [1] is inactive: 0.704% and inactive: 0.625%; in assay [8] it was inactive: 0.0246% and inactive: 0.876%. Further, the cytotoxicity increase in assay [2] is inactive: 0.569% and inactive: 12.7%; in assay [7], inactive: -3.7% and inactive: -4.83%; in [10], inactive: 0.301% and inactive: -11.1%. Besides, the activity change, negative = cytotoxicity in assay [3] was inactive: 5.23% and inactive: 15.9%. Also, the viability change, negative = cytotoxic in [4] was inactive: -7% and inactive: -4.12%. In addition, the max response in assay [5] is inactive: 0.164%. For the same compound, the activity change in assay [6] was inactive: 0.0474% and inactive: 7.81%. The cytotoxicity in [9] was inactive: 0.486% and inactive: -7.3%.

As to `ClCCNCCCl`, the activity change, negative = cytotoxic is inactive: 21.9% in [1] and inactive: 5.87% in assay [8]. Moreover, the results for the cytotoxicity increase in assay [2], in assay [7] and in [10] were inactive: 0.747%, inactive: -13.6% and inactive: -18.7%, respectively. For the same compound, in assay [3], the activity change, negative = cytotoxicity was inactive: 5.32%. Besides, in assay [4], the viability change, negative = cytotoxic is inactive: -20.1%. Further, in assay [5], the max response is inactive: -21.2%. For the same compound, the activity change in [6] was inactive: 0.828%. The cytotoxicity in assay [9] was inactive: -16.2%.

Take `CC(C)OP(OC(C)C)OC(C)C`: the activity change, negative = cytotoxic in assay [1] is inactive: -1.45%; in [8], inactive: -0.091%. The cytotoxicity increase was inactive: 4.12% in [2], inactive: -0.808% in assay [7] and inactive: 1.12% in assay [10]. Further, the activity change, negative = cytotoxicity in [3] was inactive: -4.09%. Besides, the viability change, negative = cytotoxic in assay [4] is inactive: 1.37%. Further, the max response in [5] was inactive: -4.15%. Besides, in [6], the activity change was inactive: 10.2%. The cytotoxicity in [9] was inactive: 0.786%.

As to `CCC(=O)N(c1ccccc1)C1CCNCC1`, the figures for the activity change, negative = cytotoxic in assay [1] and in assay [8] were inactive: 1.07% [at 35.3 µM] and inactive: -0.605% [at 35.3 µM], respectively. The cytotoxicity increase in [2] was inactive: -16.1% [at 35.3 µM]; in assay [10], inactive: 27% [at 35.3 µM]. In assay [3], the activity change, negative = cytotoxicity is inactive: 3.76% [at 35.3 µM]. In [4], the viability change, negative = cytotoxic is inactive: 9.51% [at 35.3 µM]. In [5], the max response was inactive: 2.94%. The activity change in [6] is inactive: -10.1% [at 35.3 µM].

Consider `CCOC(=O)N1CCC(=O)CC1`, for which the activity change, negative = cytotoxic in assay [1] was inactive: 0.695% [at 35.3 µM]; in assay [8] it was inactive: 2.02% [at 35.3 µM]. For the same compound, the cytotoxicity increase in assay [2] is inactive: 8.65% [at 35.3 µM]. Further, in [3], the activity change, negative = cytotoxicity was inactive: 2.96% [at 35.3 µM]. Besides, the viability change, negative = cytotoxic in assay [4] is inactive: 2.63% [at 35.3 µM]. Moreover, the max response in assay [5] is inactive: 1.74%. Moreover, the activity change in assay [6] was inactive: 4.93% [at 35.3 µM].

`CCOP(=O)(Cl)Cl`: the activity change, negative = cytotoxic is inactive: 1.78% and inactive: 1.87% in assay [1]; inactive: 1.16% and inactive: 0.008% in [8]. The cytotoxicity increase in [2] was inactive: -7.46% and inactive: -18.1%; in [7], inactive: -6.68% and inactive: -10.5%; in assay [10], inactive: -9.71% and inactive: -11.5%. Further, in [3], the activity change, negative = cytotoxicity is inactive: -1.28%. Also, the viability change, negative = cytotoxic in assay [4] is inactive: -6.45% and inactive: -1.15%. In [5], the Potency was active: 21.9 µM. Also, the activity change in [6] is inactive: -11.9% and inactive: -13%. The cytotoxicity in [9] was inactive: -7.22% and inactive: -11.5%.

For `CCOP(=S)(Cl)OCC`, the activity change, negative = cytotoxic in assay [1] was inactive: -9.37%; in assay [8] it was inactive: -12.2%. The cytotoxicity increase in [2] was inactive: 11.4%; in [7], inactive: 3.81%; in [10] it was inactive: 2.82%. Also, in [3], the activity change, negative = cytotoxicity is inactive: 17.1%. The viability change, negative = cytotoxic in [4] is inactive: 2.81%. In addition, in assay [5], the max response was inactive: 3.57%. Also, the activity change in assay [6] was inactive: 2.75%. Further, the cytotoxicity in [9] is inactive: 4.85%.
